A short description of the data set: Encapsulation efficiency of proteins ensilicated in GPs with 100% TEOS. The data set is classed as physicochemical. Particulars: 100% TEOS prepolymerized at pH 2, SDS-PAGE.

As for Glucose oxidase, the “% encapsulation efficiency in GPs” value amounted to 98 ± 3%.

Source of the values: patent publication US20240058275A1, “NANO-SILICA - IN YEAST PARTICLE (YP) DRUG ENCAPSULATION APPROACH FOR IMPROVED THERMAL AND HYDROLASE STABILITY OF YP DRUG DELIVERY FORMULATIONS” (UNIVERSITY OF MASSACHUSETTS, priority 2022, published 2024).
